Measurements from PubChem BioAssay AID652104 (National Center for Advancing Translational Sciences (NCATS), 2013).
Where “and” joins values, the source holds several entries; their conditions need not be identical. Equal entries are not always repeated. The entries are a selection whose mix differs from that of the whole data set. Some results for these compounds are left out of this collection, so the calls shown say nothing about other tests. Results filed as inconclusive are left out. Calls of active or inactive are those of the source. The call rests on the fitted dose curve; in most records, active means well fitted activation curve with a large enough effect; inconclusive means small, poorly fitted or top-dose-only effect, or another doubt; inactive means no such curve, though single readings can be large or run the other way.

Test: qHTS of TDP-43 Inhibitors; further: % of control where 0% means no effect; nearly all actives have a fitted effect of over 50% in size
Details: TDP-43 expressing yeast growth rescue, BacTiter-Glo, 24 h; at 46.1 µM (top of the series) unless noted

Row | Compound | growth rescue (activation)
1 | CC(C)COc1ccc(C(=O)NCC2(N(C)C)CCCCC2)cc1 | inactive: -15.8%
2 | O=C(OC1CN2CCC1CC2)C(CO)(c1ccccc1)c1ccccc1 (stereo unspecified) | inactive: -6.35%
3 | COc1cccc(C(=O)NCC2(N3CCOCC3)CCCCC2)c1 | inactive: -7.89%
4 | CN(C)c1cccc(C(=O)NCC2(N(C)C)CCCCC2)c1 | inactive: 6.9%
5 | CC(C)Oc1ccc(C(=O)NCC2(N(C)C)CCCCC2)cc1 | inactive: 17.2% and inactive: 9.78%
6 | O=C(OCCN1CCCC1)C(O)(c1ccccc1)c1ccccc1 | inactive: 14.5%
7 | Cc1cccc(C(=O)NCC2(N(C)C)CCCCC2)c1 | inactive: 30.1%
8 | COc1cc(C(=O)NCC2(N(C)C)CCCCC2)cc(OC)c1OC | inactive: 12.1% [at 9.22 µM]
9 | COc1ccc(Br)c(C(=O)NCC2(N3CCCCC3)CCCCC2)c1 | inactive: 5.83%
10 | C=C(C)C#CC(O)(C(=O)OC1CCN(C)CC1)c1ccccc1 (stereo unspecified) | inactive: -9.79%
11 | COc1cc(C(=O)NCC2(N(C)C)CCCCC2)c([N+](=O)[O-])cc1OC | inactive: 2.15%
12 | CN(C)C1(CNC(=O)c2ccc(Br)cc2)CCCCC1 | inactive: -27.9%
13 | O=C(NCC1(N2CCCCC2)CCCCC1)c1cccc(Cl)c1 | inactive: -5.09%
14 | COc1ccc(C(=O)NCC2(N(C)C)CCCCC2)cc1Cl | inactive: 8.22%
15 | COc1cccc(C(=O)NCC2(N3CCCCC3)CCCCC2)c1 | inactive: -12.3%
16 | COc1ccc(Cl)cc1C(=O)NCC1(N(C)C)CCCCC1 | inactive: 5%
17 | CCCCOc1ccccc1C(=O)NCC1(N(C)C)CCCCC1 | inactive: -31.1%
18 | CN(C)C1(CNC(=O)c2ccccc2[N+](=O)[O-])CCCCC1 | inactive: 11.5%

Row | Compound | growth rescue (activation)
19 | Cc1ccccc1C(=O)NCC1(N2CCCCC2)CCCCC1 | inactive: 14.2%
20 | CN(C)C1CCCC1OC(=O)C(O)(c1ccccc1)c1ccccc1 (stereo unspecified) | inactive: -0.27%
21 | CN(C)c1ccc(C(=O)NCC2(N(C)C)CCCCC2)cc1 | inactive: 11%
22 | Cc1cc(C(=O)NCC2(N3CCCCC3)CCCCC2)ccc1[N+](=O)[O-] | inactive: -6.82%
23 | CCN1CCCC(OC(=O)C2(O)c3ccccc3C=Cc3ccccc32)C1 (stereo unspecified) | inactive: 6.86%
24 | O=C(NCC1(N2CCCCC2)CCCCC1)c1cccc(Br)c1 | inactive: -10.5%
25 | COc1ccc(C(=O)NCC2(N(C)C)CCCCC2)cc1 | inactive: 18.6%
26 | CCOc1cccc(C(=O)NCC2(N(C)C)CCCCC2)c1 | inactive: -2.63%
27 | C=CCN1CCN(CCOC(=O)C(O)(c2ccccc2)c2ccccc2)CC1 | inactive: 9.39%
28 | O=C(NCC1(N2CCCCC2)CCCCC1)c1cc(F)c(F)cc1Cl | inactive: -6.16%
29 | CN1[C@@H]2CC[C@H]1CC(OC(=O)C(O)(c1ccccc1)c1ccccc1)C2 (stereo partly specified) | inactive: 7.56%
30 | O=C(NCC1(N2CCCCC2)CCCCC1)c1cc([N+](=O)[O-])ccc1Cl | inactive: 13.5%
31 | CN(C)C1(CNC(=O)c2ccccc2F)CCCCC1 | inactive: -1.91%
32 | Cc1ccc(C(=O)NCC2(N3CCCCC3)CCCCC2)cc1 | inactive: -29.8%
33 | CC(C)N1C(=O)CC2(CCN(CCOC(=O)C(O)(c3ccccc3)c3ccccc3)CC2)C1=O | inactive: 6.44%
34 | CCN(CC)CC(C)C(C)OC(=O)C(O)(c1ccccc1)c1ccccc1 (stereo unspecified) | inactive: -0.453%
35 | CN(C)C1(CNC(=O)c2cccc(Cl)c2)CCCCC1 | inactive: 16.6%
36 | COc1cc(SC)ccc1C(=O)NCC1(N(C)C)CCCCC1 | inactive: 5.92%
